{"source": "PubChem BioAssay AID1443", "about": "(Sanford-Burnham Center for Chemical Genomics, 2008)", "note": "The entries are a selection whose mix differs from that of the whole data set. Activity calls are given as the source filed them.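 How the source made its calls: active means cell killing above 50% in the first pass at 4 µM, then a duplicate retest at 5 µM averaging 50% or more; inactive means the rest.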", "data": [{"assay": "compounds killing PPC-1 cancer cells with TRAIL present, primary screen, TRAIL potentiator project, ATPLite luminescence, uHTS (AID 1443);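 further: plate controls were cells with TRAIL plus DMSO for no effect and medium-only wells lacking cells for full effect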", "settings": "PPC-1 cells + TRAIL, ATPLite viability luminescence; at 5 µM; hits give high values", "values": [{"molecule": "C[N+]1=C2C=CC=CC=C2SC12C([N+](=O)[O-])=CC([N+](=O)[O-])=C[C-]2[N+](=O)[O-]", "note": "(stereo unspecified)", "cell killing (% activity)": "inactive: 20.1%"}]}]}
